According to PubChem BioAssay AID492956 (The Scripps Research Institute Molecular Screening Center, 2010):
The list shows a part of the results, in another mix than the full data. Calls of active or inactive are those of the source.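 Rule for the calls: active = inhibition above the mean over all tested compounds plus 3 SD (cut at about 30% in these data); inactive = the rest.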

The molecules below were run against Platelet-activating factor acetylhydrolase 2, cytoplasmic (Homo sapiens) (UniProt Q99487) (assay: PAFAH2 enzyme inhibitors, primary screen, biochemical, fluorescence polarization, human (AID 492956;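 note: inhibitors block probe labeling of enzyme so polarization drops; 0% = enzyme with DMSO and 100% = wells lacking PAFAH2 protein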)). Settings: recombinant PAFAH2, FP-rhodamine activity probe, at 3.39 µM, active compounds read high.

Row | SMILES | inhibition
1 | CCOP(=O)(Nc1cccc2ccccc12)OCC | inactive: 2.59%
2 | COc1cc(C2NCCC3(OCCO3)C2(C)C)cc(OC)c1OC (configuration not stated) | inactive: -7.99%
3 | Nc1cccc2c([As](=O)(O)O)cccc12 | inactive: 21.4%
4 | Cc1ccc(NCCc2c([N+](=O)[O-])cc([N+](=O)[O-])cc2[N+](=O)[O-])cc1 | inactive: -3.38%
5 | CCCOP(=S)(Nc1nc(N)cc(=O)[nH]1)OCCC | inactive: 2.46%
6 | O=[As](O)(c1cccc(O)c1)c1cccc(O)c1 | inactive: -7.18%
7 | Cc1cccc(OCC(=O)OC2CN3CCC2CC3)c1 (configuration not stated) | inactive: -0.79%
8 | O=C(OC1CN2CCC1CC2)c1ccc(Cl)cc1 (configuration not stated) | inactive: 5.99%
9 | CS(=O)(=O)c1ccc(Cl)c(NC(=O)COC(=O)C(O)(c2ccccc2)c2ccccc2)c1 | inactive: -0.76%
10 | COc1cc(C(=O)NCC2(N3CCOCC3)CCCCC2)cc(Cl)c1OC(C)C | inactive: -1.48%
11 | O=[As](O)(O)c1cccnc1 | inactive: -2.26%
12 | CCOP1(=S)c2c(C)nn(CCC#N)c2N=C(c2ccc(F)cc2)N1C (configuration not stated) | inactive: -0.66%
13 | CN(C(=O)Cc1ccccc1)[C@@H]1CC[C@]2(CCCO2)C[C@H]1N1CCCC1 | inactive: -26.8%
14 | N#CCCN(C(=O)COC(=O)C(O)(c1ccccc1)c1ccccc1)c1ccc(F)cc1 | inactive: -2.89%
15 | CN(C(=O)Cc1ccc(Cl)c(Cl)c1)[C@H]1CC[C@@]2(CCCO2)C[C@@H]1N1CCCC1 | inactive: 3.51%
16 | CN(C)C(=O)c1cc([N+](=O)[O-])cc2c1-c1c(cc([N+](=O)[O-])cc1[N+](=O)[O-])C2=O | inactive: 10.1%
17 | O=[N+]([O-])c1ccc2c(c1)nnn2O | inactive: 6.61%
18 | NC(=O)Nc1ccc([As](=O)(O)O)cc1 | inactive: -3.91%
19 | Nc1ccccc1[As](=O)(O)c1ccccc1 | inactive: -1.21%
20 | O=C(O)COc1ccc([As](=O)(O)O)cc1[N+](=O)[O-] | inactive: 2.55%
21 | O=P(Nc1nccs1)(c1ccccc1)c1nc2ccccc2s1 (configuration not stated) | inactive: 2.27%
22 | O=P(Nc1nccs1)(Oc1ccccc1)Oc1ccccc1 | inactive: -8.11%
23 | CCOP1(=S)c2c(C)nn(CCC#N)c2N=C(c2ccccc2F)N1C (configuration not stated) | inactive: 1.81%
24 | CS(=O)(=O)c1cc([N+](=O)[O-])c2no[n+]([O-])c2c1 | inactive: -0.4%
25 | Nc1cccc([As](=O)(O)c2ccccc2)c1 | inactive: -6.47%
26 | O=P1(Nc2ccc(Br)cn2)COc2ccccc2OC1 | inactive: 3.14%
27 | NS(=O)(=O)c1cccc(NC(=O)COC(=O)C(O)(c2ccccc2)c2ccccc2)c1 | inactive: -11.4%
